Assay results reported in patent US20260077055A1, “COMPOSITIONS OF POLYPLEXES AND SAPONINS” (SAPREME TECHNOLOGIES B.V., priority 2022, published 2026).

What was measured:
EGFR+ A431 cells = assay: Cell viability (MTS) after polyplex transfection of A431 cells; type: cell-based
Description: (§1) Spectrophotometry: Concentrations were determined using either a Thermo Nanodrop 2000 spectrometer or Perkin Elmer Lambda 365 Spectrophotometer. DLS measurements: DLS measurements were performed on a Malvern Nano ZS (Malvern Instruments, U.K.), operating at 633 nm with a 173° scattering angle, at 25 or 37° C. DLS mean diameters were obtained from the intensity particle size distribution provided by Malvern Zetasizer Software. DLS histograms were obtained from the intensity particle size distributions. Zeta-potential: The zeta-potential values of the polyplexes were obtained by laser doppler anemometry (LDA), measuring the mean electrophoretic mobility (Malvern Zetasizer Nano ZS, Malvern Instruments, U.K.). Measurements were performed in 10 mM HEPES pH 7.1, 150 mM NaCl. TEM measurements: TEM measurements were performed on a JEOL JEM-1011 operated at 100 kV electron microscope, equipped with a camera S5 MegaView G2. […] Infrared Spectroscopy: FT-IR spectra were recorded on a Bruker Vertex 70v, equipped with a RockSolid interferometer, after preparing the samples (1-2 mg) as KBr pellets. […] NMR Spectroscopy: 1H NMR spectra were recorded on a 11.7 T Bruker DRX-500 spectrometer. […] Experiments were recorded acquiring 64-512 scans, with a pre-scan delay (d1) of 12 s, and an acquisition time (aq) of 4 s at 300 K. 13C NMR spectrum was recorder on a 9.39 T Varian Innova 400 spectrometer. […]

EGFR-A2058 cells = assay: Cell viability (MTS) after polyplex transfection of A2058 cells; type: cell-based
Description: as §1

[1] = co-administered with PAMAM G5(PEG-N3)6.2 npSaporin polyplexes, 73 nM Cetuximab-SO1861 or 4 μM SO1861-EMCH, 72 h

Cetuximab-SO1861: Cetuximab conjugated via cysteines with SO1861-EMCH, 4 SO1861 moieties per antibody (DAR4)
cytoplasmic delivery of npSaporin / cell killing (EGFR+ A431 cells; [1]): very strong enhancement in cytoplasmic delivery of the npSaporin | plasmid concentration from which cell killing occurs (EGFR+ A431 cells; polyplexed npSaporin (PAMAM G5 or PAMAM G5 (PEG-N3)6) co-administered with Cetuximab-SO1861 (DAR4)): ≥ 10 PM | cytoplasmic delivery of npSaporin / cell killing (EGFR-A2058 cells; [1]): not in the EGFR-cell line A2058 | cell killing by polyplexed npSaporin (EGFR-A2058 cells; co-administration of Cetuximab-SO1861 (DAR4), no EGFR expression): this cell killing was not observed
